Literature values in patent US11739132B2, “Separation moieties and methods of use thereof” (Werewolf Therapeutics, Inc., priority 2019, dated 2023).

Settings: in vivo, cited from earlier work

Substance: Interleukin-2 [IL-2]
- Serum half-life (iv): ~0.167 h
- Half-life of metabolism by the kidneys: ~2.5 h
